Target: Recombinant human A97S‐TTR (transthyretin, A97S variant) (human) (UniProt P02766)
Experiment: SDS-PAGE; 15% SDS–PAGE of the purified protein after Ni affinity and gel filtration

How did the stoichiometry N turn out when “Recombinant human A97S‐TTR (transthyretin, A97S variant) (from UniProt P02766 21-144) (natural protein)” was run?
Its stoichiometry N is 4.
